Values of other authors, collected in publication PMC12641067 (Clinical Pharmacology and Therapeutics, 2025).

System: OAT1
Parameters: method as in ref 9 (a number printed in a supplementary file, which may have a reference list of its own: not looked up in the article's list)
Settings: substrate PDA; HEK293; read-out: In vitro OAT1 IC50; cited from earlier work

CCCN(CCC)S(=O)(=O)c1ccc(C(=O)O)cc1 [PROB, probenecid]
IC50: 22 µM
